Test results published in paper PMC5744149.

Target: HPV16 quasivirus capsid containing L1 and L2 proteins and encapsidating a cottontail rabbit papillomavirus genome (CRPV) (Human papillomavirus type 16 (L1 from HPV16 sheLL plasmid; isolate not named)) (UniProt P03101)
Experiment: cryo-EM structure

**Q.** Which Fab density relative to capsid density does the source give for “Fab of the neutralizing monoclonal antibody H16.U4” here?
**A.** 70%

**Q.** What about the sites per capsid occupied on average (sites per capsid) of the same substance?
**A.** 42

**Q.** What about the stoichiometry N (Fab binding sites per capsid) of the same substance?
**A.** 60
